## scFv variants of Ab-91 (heavy chain) against a SARS-CoV-2 spike peptide

Source: Engelhart et al. 2022 (doi:10.1038/s41597-022-01779-4), MIT Lincoln Laboratory and A-Alpha Bio; data file from the FLAb repository.

Antigen: PDVDLGDISGINAS, a 14-residue peptide of the SARS-CoV-2 spike HR2 region.

Parent scFv Ab-91: VL joined to VH by a 15-residue (Gly4Ser)3 linker. Changes lie in the heavy chain CDRs alone.
VL: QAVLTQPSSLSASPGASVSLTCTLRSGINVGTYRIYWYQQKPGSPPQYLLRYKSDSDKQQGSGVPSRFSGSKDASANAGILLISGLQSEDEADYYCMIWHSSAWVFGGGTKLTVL
VH: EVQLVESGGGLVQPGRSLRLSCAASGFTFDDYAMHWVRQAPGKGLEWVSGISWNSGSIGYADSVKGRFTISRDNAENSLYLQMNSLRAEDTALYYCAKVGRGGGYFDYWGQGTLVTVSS

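Phage display of a naive human antibody library on the peptide gave the parent. The library (AAYL51) carries one to three amino acid substitutions per variant, with no insertions or deletions. AlphaSeq pools MATa yeast showing the antibodies with MATalpha yeast showing the peptide. Mating (16 h, 30 °C) was followed by selection of diploids and sequencing of their barcodes. Read counts were normalised to the haploid input and turned into Kd by a linear fit to BCL2-family pairs of known affinity, for each replicate. The assay was run in three technical replicates.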

Each variant is given by its three heavy chain CDRs, as the data file delimits them; those of the parent are GFTFDDYAMH, GISWNSGSIGYADSVK, VGRGGGYFDY.
This list gathers variants with a substitution at G56 (VH, numbered from residue 1).
The Kd shown is the geometric mean over detected replicates; a lower Kd is a better binder.
An entry "nd" has no value in the source: the pair was not observed among the diploids in any replicate. This suggests poor binding but is not conclusive.
As a blank, each scFv also met three strains without target: over library AAYL51, 21% of these pairings were detected, typically at 34 µM and seldom below 1.8 µM. The control count says in how many pairings with the empty strains this scFv gave a signal.
Parent in this assay: reference entry 72 nM, copy in this library 7.5 nM.

* GFTFDDYAMH, GISWNSRSIGYADSVK, VGRGGGYFDY -> 120 nM (3 of 3 replicates; controls 2 of 9)
* GFTFDNYAMH, GISWNSTSIGYADSVK, LGRGGGYFDY -> 25 nM (3 of 3 replicates; controls 1 of 9)
* GFTFDDYAMH, GISWNSHSIYYADDVK, VGRGGGYFDY -> 29 µM (3 of 3 replicates; controls 1 of 9)
* GFTFDDYAMH, GISWDSHSIGYADSNK, VGRGGGYFDY -> nd (0 of 3 replicates; controls 1 of 9)
* GFTFDDYAMH, GISWNSTSIGYADMVK, VGRGGGYFDY -> 44 µM (2 of 3 replicates; controls 4 of 9)
* GFTFDDMAMQ, GISWNSVSIGYADSVK, VGRGGGYFDY -> nd (0 of 3 replicates; controls 1 of 9)
* GFTFDDYAMH, FISWNSNSIGYADSVK, VGRGGTYFDY -> nd (0 of 3 replicates; controls 1 of 9)
* GFTFDDYAMH, GISTNSHSIGYRDSVK, VGRGGGYFDY -> 42 µM (3 of 3 replicates; controls 5 of 9)
* DFTYDDYAMH, GISWNSCSIGYADSVK, VGRGGGYFDY -> nd (0 of 3 replicates; controls 1 of 9)
* GYTFDDYAMH, GISWNAQSIGYADSVK, VGRGGGYFDY -> 1.4 µM (3 of 3 replicates; controls 3 of 9)
* GFTFDDYAMH, GISWNSDSIPYADSVK, VGRGGGYFDY -> 490 µM (1 of 3 replicates; controls 1 of 9)
* GFTFDDYAMH, GISENSSSIGYADSVK, VGRGGGRFDY -> 87 µM (2 of 3 replicates; controls 3 of 9)
* GFTFDDYAMH, GISWNSWSIGYADSVK, VGRGGGFFDC -> 63 nM (3 of 3 replicates; controls 4 of 9)
* GFTFDDYAMH, GIFWNSESIGYADSVK, VGRGGGYFGY -> 11 µM (1 of 3 replicates; controls 1 of 9)
* GFTFDDYWMH, GISWNSNSIGYADSVK, VGRGGGYFDY -> nd (0 of 3 replicates; controls 1 of 9)
* GFTFDDYAMH, GISWNSPSIKYADMVK, VGRGGGYFDY -> nd (0 of 3 replicates; controls 0 of 9)
* GFTFDDYAMH, GISWESTSIGYADSVK, VGRGGGYFDY -> 160 nM (3 of 3 replicates; controls 5 of 9)
* GFTFDDYAMH, YISWNMMSIGYADSVK, VGRGGGYFDY -> nd (0 of 3 replicates; controls 0 of 9)
* GFTFDDYAMH, GHSWNSISIGYAQSVK, VGRGGGYFDY -> 63 µM (2 of 3 replicates; controls 2 of 9)
* GFTFDDYAMH, GIDWNSRSYGYADSVK, VGRGGGYFDY -> 17 µM (2 of 3 replicates; controls 5 of 9)
* GFTFDDYAMH, GISCNSESIGYADSVK, VGRGGGYFDY -> 63 nM (2 of 3 replicates; controls 1 of 9)
* GFTFDDYAMH, GISWASWSIGYADSVK, VGRGGGYQDY -> nd (0 of 3 replicates; controls 2 of 9)
* GFTFDDYAMH, GWSWNSNSIGYADSVK, VGRIGGYFDY -> 480 µM (2 of 3 replicates; controls 6 of 9)
* GFTFDHYAMH, GISWNSISIGYADSVK, VGRGGGYFDY -> 3.3 nM (3 of 3 replicates; controls 7 of 9)
* GFTFDDYAMH, KISWNSIIIGYADSVK, VGRGGGYFDY -> 13 µM (1 of 3 replicates; controls 1 of 9)
* GFTFDHYAMH, GISWNSNSIGYAESVK, VGRGGGYFDY -> 5.0 nM (3 of 3 replicates; controls 1 of 9)
* GFTFDDYASH, GISWNSLSIGYQDSVK, VGRGGGYFDY -> nd (0 of 3 replicates; controls 1 of 9)
* GFTFDDYAMH, GISWNAYSIGYADSVK, VGRGGGYFWY -> 8.9 µM (1 of 3 replicates; controls 2 of 9)
* GFTFPDYAMH, GISWNSNSIGYADSVK, VGRMGGYFDY -> nd (0 of 3 replicates; controls 0 of 9)
* GFTFDGYATH, GISWNSASIGYADSVK, VGRGGGYFDY -> nd (0 of 3 replicates; controls 0 of 9)
* GFTFDDYAMH, GISWNSLSMGYADSVK, VGRGGGYFDY -> 9.1 µM (3 of 3 replicates; controls 2 of 9)
* GFTFDDYAMH, GISWNSTSIGYADSVK, VGRGGHYFDY -> nd (0 of 3 replicates; controls 0 of 9)
* GFTFDDYAMH, GISWNSCSIGRADSVK, VGTGGGYFDY -> 300 µM (2 of 3 replicates; controls 6 of 9)
* GFTFDDYAGH, GISWNSESIGYHDSVK, VGRGGGYFDY -> nd (0 of 3 replicates; controls 0 of 9)
* GFTFDDYAMH, GISWNFNSIGYADSVK, VGRGYGYFDY -> 51 µM (3 of 3 replicates; controls 4 of 9)
* GFTFDDYAMH, GISWNSMSIGYADYVK, YGRGGGYFDY -> 12 nM (3 of 3 replicates; controls 8 of 9)
* GFMFDDYAMH, GISWNSKSIGYADSVK, VGRGGGYFDY -> 950 nM (3 of 3 replicates; controls 2 of 9)
* GFTFDDYAMI, GISWNSRSIGYADSVK, VIRGGGYFDY -> 75 µM (1 of 3 replicates; controls 3 of 9)
* GFTFDDYAMH, GISWNSDSYGYADSVK, VGRDGGYFDY -> nd (0 of 3 replicates; controls 0 of 9)
* GFTFDDYAMH, GISWQSISIGYADSVK, VGRGGGYFDI -> nd (0 of 3 replicates; controls 0 of 9)
* GFTFDDYAMH, GISWNSPVIGYADSVK, VGRGGGFFDY -> 1.1 µM (1 of 3 replicates; controls 1 of 9)